{
  "source": "patent US20240042045A1",
  "about": "“NANOPARTICLES CONTAINING MULTIPLE CLEAVABLE PRODUGS FOR CANCER THERAPY” (The University of Chicago, priority 2020, published 2024)",
  "test_system": "CT26 and MC38 cells",
  "settings": "concentrations up to 300 μM",
  "data": [
    {"substance": "20-O-tert-butyl-SN38 [SN38-Bu]", "values": [
      {"measurement": "cytotoxicity", "value": "no cytotoxicity"}
    ]}
  ]
}
